pEC50: −log10 of the molar value.
Biological target: M4 receptor (Homo sapiens, UniProt P08173)
Assay: PAM agonistic activity of compound on M4 receptor (FLIPR Calcium 6 assay in M4-CHO cells)
Conditions: with acetylcholine (Ach), final concentration 3 nM
Protocol: • 1). Cell plating: M4-CHO cells were digested, collected, and resuspended. After cell counting, the cell suspension was seeded into a 384-well cell plate at a density of: 1.2 × 10^4 cells/25 µL/well. The cell plate was then cultured in a 37°C, 5% CO2 incubator for about 16-20 h. • 2). Day 2: Assay Buffer was prepared according to the instructions of the FLIPR Calcium 6 Assay Kit. Component A (20×) was thawed to room temperature and diluted with the Assay Buffer to prepare a loading buffer (1×), which was stored at room temperature until use. • 3). The culture medium was removed from the cell plate. 40 µL of the loading buffer (1×) was quickly added to each well. The cell plate was then centrifuged and incubated at 37°C in the dark for 120 min. • 4). Working solutions of the positive control compound and the test compounds were prepared. An acetylcholine (Ach) agonist compound solution was prepared (final concentration: 3 nM). The PAM compound and the Ach agonist solution were mixed at a 1 : 1 ratio, and the mixture was transferred into a 384-well compound source plate at 20 µL per well. • 5). The cell plate, the compound source plate, and the pipette tips were placed into the corresponding positions within the FLIPR instrument. 10 µL of the diluted compound from step 4 was added into each experimental well using the FLIPR Tetra. Data was collected at the wavelength of 515 nm-575 nm. • 6). The signal values were plotted against the compound concentrations. Nonlinear regression analysis was performed using GraphPad Prism software for curve fitting and EC50 calculation.
The experimental results are shown in Table 1, where A represents EC50 < […]; B represents 100 nM ≤ EC50 < 500 nM, and C represents 500 nM ≤ EC50. Table 1. Agonistic activity of compounds on M4 receptor

Chains of the proteins cited; added tags and fusions are not shown.
UniProt P08173, whole entry: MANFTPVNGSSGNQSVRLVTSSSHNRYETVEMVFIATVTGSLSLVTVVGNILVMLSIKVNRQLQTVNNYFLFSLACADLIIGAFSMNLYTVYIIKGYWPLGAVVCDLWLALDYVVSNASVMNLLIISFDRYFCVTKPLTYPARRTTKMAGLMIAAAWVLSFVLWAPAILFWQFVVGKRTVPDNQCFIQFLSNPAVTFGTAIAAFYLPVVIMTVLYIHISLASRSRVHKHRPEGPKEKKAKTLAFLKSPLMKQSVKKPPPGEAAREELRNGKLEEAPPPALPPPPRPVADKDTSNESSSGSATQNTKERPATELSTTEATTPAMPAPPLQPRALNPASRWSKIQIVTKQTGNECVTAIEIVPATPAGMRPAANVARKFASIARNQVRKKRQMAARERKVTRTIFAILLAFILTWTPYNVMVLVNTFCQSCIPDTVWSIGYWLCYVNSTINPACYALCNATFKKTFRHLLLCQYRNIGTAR

Compound | pEC50 | pEC50 (tested form: free base)
Cc1cc(C)c2c(n1)CN(C(=O)CC1CN(c3cc(-n4ccc(C)n4)ncc3F)C1)C2 | > 7.00 | –
Cc1cc(C2CCOC2)nc2c1CN(C(=O)CC1CN(c3ccnc(OC4CC(F)(F)C4)c3)C1)C2 (centres unmarked) | – | > 7.00
Cc1c2c(nc3c1CN(C(=O)CC1CN(c4ccnc(C(F)(F)F)c4)C1)C3)CCC2 | > 7.00 | –
Cc1cc(-c2cnn(C)c2)nc2c1CN(C(=O)CC1CN(c3ccnc(OC4CC(F)C4)c3)C1)C2 (centres unmarked) | – | > 7.00
Cc1cc(C)c2c(n1)CN(C(=O)CC1CN(c3ccnc(-n4cc5c(n4)CCC5)c3)C1)C2 | – | > 7.00

— patent EP4733303A1, “MUSCARINIC M4 RECEPTOR AGONIST AND USE THEREOF” (Haisco Pharmaceutical Group Co., Ltd., priority 2023, dated 2024)
